Source: ChEMBL document CHEMBL1129385, “Aspartic acid conjugates of 2-(3,4-dichlorophenyl)-N-methyl-N-[(1S)-1(3-aminophenyl)-2-(1-pyrrolidi nyl) ethyl]acetamide: kappa opioid receptor agonists with limited access to the central nervous system” (J Med Chem, 1996)
Calls of active or inactive are those of the source. The calls are words filed in the database; no cut-off is given here.

By UniProt entry, the sequences of proteins in these tests, tags left out. Where a name states a change or a piece, a line headed by the entry shows the natural chain unless it says otherwise.
UniProt P41143, whole entry, looked up: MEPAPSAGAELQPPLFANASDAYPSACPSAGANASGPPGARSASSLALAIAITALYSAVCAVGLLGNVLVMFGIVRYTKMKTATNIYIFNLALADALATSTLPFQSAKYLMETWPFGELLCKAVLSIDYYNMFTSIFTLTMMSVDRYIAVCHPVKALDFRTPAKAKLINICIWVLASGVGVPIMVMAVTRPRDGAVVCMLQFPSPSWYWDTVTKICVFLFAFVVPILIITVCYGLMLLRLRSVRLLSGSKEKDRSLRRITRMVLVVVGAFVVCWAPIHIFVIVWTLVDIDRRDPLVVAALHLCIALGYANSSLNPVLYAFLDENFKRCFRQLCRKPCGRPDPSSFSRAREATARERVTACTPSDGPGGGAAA
UniProt P35372, whole entry, looked up: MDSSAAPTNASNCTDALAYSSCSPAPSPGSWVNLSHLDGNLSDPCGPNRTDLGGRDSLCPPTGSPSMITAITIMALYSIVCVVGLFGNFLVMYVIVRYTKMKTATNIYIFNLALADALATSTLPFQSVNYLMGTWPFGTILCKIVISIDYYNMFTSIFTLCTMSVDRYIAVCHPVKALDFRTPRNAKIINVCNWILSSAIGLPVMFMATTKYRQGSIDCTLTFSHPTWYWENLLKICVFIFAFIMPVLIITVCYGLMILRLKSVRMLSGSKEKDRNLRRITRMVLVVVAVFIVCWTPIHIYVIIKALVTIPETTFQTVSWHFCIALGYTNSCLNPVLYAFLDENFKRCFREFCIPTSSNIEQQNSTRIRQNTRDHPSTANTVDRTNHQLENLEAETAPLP
UniProt P41145: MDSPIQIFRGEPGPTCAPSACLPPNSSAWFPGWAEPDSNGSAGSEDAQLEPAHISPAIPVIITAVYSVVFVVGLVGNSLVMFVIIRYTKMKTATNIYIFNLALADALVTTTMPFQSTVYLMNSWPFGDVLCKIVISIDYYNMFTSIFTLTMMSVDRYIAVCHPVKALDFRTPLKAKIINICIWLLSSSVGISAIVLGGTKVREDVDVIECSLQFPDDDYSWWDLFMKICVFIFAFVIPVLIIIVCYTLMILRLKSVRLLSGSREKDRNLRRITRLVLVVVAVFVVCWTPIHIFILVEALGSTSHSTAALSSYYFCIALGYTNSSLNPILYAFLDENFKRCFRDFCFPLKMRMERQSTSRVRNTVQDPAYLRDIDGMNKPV

Experiments:
Mus musculus [1] = assay: Peak time for Antinociception Tail-flick(min) by iv administration in mice;NE= no effect
Mus musculus [2] = assay: Peak time for Antinociception Tail-flick(min) by icv administration in mice;NE= no effect
[3] = molecular target: Delta-type opioid receptor (Homo sapiens) (UniProt P41143); assay: Compound was tested for the NTI Delta receptor Selectivity of Antinociception in the Mouse Abdominal Stretch Assay by using antagonists; ED50 ratio; settings: Abdomen
[4] = molecular target: Mu-type opioid receptor (Homo sapiens) (UniProt P35372); assay: Compound was tested for the beta-FNA Mu receptors Selectivity of Antinociception in the Mouse Abdominal Stretch Assay by using antagonists; ED50 ratio; settings: Abdomen
[5] = molecular target: Kappa-type opioid receptor (Homo sapiens) (UniProt P41145); assay: Compound was tested for the nor-BNIb kappa receptors Selectivity of Antinociception in the Mouse Abdominal Stretch Assay by using antagonists; ED50 ratio; settings: Abdomen

Structure (SMILES) | TIME (Mus musculus [1]) | TIME (Mus musculus [2]) | Ratio [3] | Ratio [4] | Ratio [5]
CN(C(=O)Cc1ccc(Cl)c(Cl)c1)[C@H](CN1CCCC1)c1cccc(NC(=O)[C@H](N)CC(=O)O)c1 | inactive | inactive | 0.55 | 1.75 | 1.69
CN(C(=O)Cc1ccc(Cl)c(Cl)c1)[C@H](CN1CCCC1)c1cccc(NC(=O)[C@@H](N)CC(=O)O)c1 | – | – | 0.92 | 2.86 | 5
CN(C(=O)Cc1ccc(Cl)c(Cl)c1)[C@H](CN1CCCC1)c1cccc(NC(=O)C[C@H](N)C(=O)O)c1 | – | – | 1.01 | 2.56 | 7.14
